Measurements from paper PMC7012088 (Cancer Biology & Therapy, 2019).

Tests used:
[1] = Lapatinib brain and plasma exposure in Mdr1a/Mdr1b; format: in vivo, mouse; conditions: Mdr1 knockout mice, lapatinib alone
[2] = mice lacking both murine-type ABCB1 and ABCG2; cited from earlier work

lapatinib brain:plasma ratio (AUC0-24, brain/AUC0-24hr, plasma) [1]: 0.092
SMILES: CS(=O)(=O)CCNCc1ccc(-c2ccc3ncnc(Nc4ccc(OCc5cccc(F)c5)c(Cl)c4)c3c2)o1 [lapatinib, N-{3-chloro-4-[(3-fluorobenzyl)oxy]phenyl}-6-[5-({[2-(methylsulfonyl)ethyl]amino}methyl)-2-furyl]-4-quinazolinamine]
increase of lapatinib brain-to-plasma ratio [2]: 40 fold
